According to US10822314B2, “Process for the preparation of a dual-acting angiotensin receptor-neprilysin inhibitor compound” (Hetero Labs Ltd., priority 2015, dated 2020):
Like-named read-outs stand apart in the source and are kept apart here.

- Chromatographic purity by HPLC (5 ± 2° C., 3 Months): 99.94%
- PXRD (5 ± 2° C., 3 Months): Amorphous
- Water content (5 ± 2° C., 3 Months): 3.86%
- Chromatographic purity by HPLC (5 ± 2° C., 5 Months): 99.96%
- PXRD (5 ± 2° C., 5 Months): Amorphous
- Water content (5 ± 2° C., 5 Months): 3.60%
- Chromatographic purity by HPLC (5 ± 2° C., Initial): 99.90%
- PXRD (5 ± 2° C., Initial): Amorphous
- Water content (5 ± 2° C., Initial): 3.5%
- Chromatographic purity by HPLC (25 ± 2° C., 3 Months): 99.94%
- PXRD (25 ± 2° C., 3 Months): Amorphous
- Water content (25 ± 2° C., 3 Months): 4.59%
- Chromatographic purity by HPLC (25 ± 2° C., 5 Months): 99.95%
- PXRD (25 ± 2° C., 5 Months): Amorphous
- Water content (25 ± 2° C., 5 Months): 5.5%
- Chromatographic purity by HPLC (25 ± 2° C., Initial): 99.90%
- PXRD (25 ± 2° C., Initial): Amorphous
- Water content (25 ± 2° C., Initial): 3.50%
Substance: Sacubitril/Valsartan trisodium
